Laboratory results from patent US10842969B2, “Systems and methods of treating malacia by local delivery of hydrogel to augment tissue” (priority 2013, dated 2020).

Assay: in vivo
Details: pig, bronchial tissue, other: local injection to the bronchial adventitia, average paclitaxel concentration in bronchial tissue, low dose group, first two distal and first two proximal segments (4 cm around injection site)

For `CC(=O)O[C@H]1C(=O)[C@@]2(C)[C@H]([C@H](OC(=O)c3ccccc3)[C@]3(O)C[C@H](OC(=O)[C@H](O)[C@@H](NC(=O)c4ccccc4)c4ccccc4)C(C)=C1C3(C)C)[C@]1(OC(C)=O)CO[C@@H]1C[C@@H]2O` [paclitaxel], the concentration at 7 days (0.05 mg/site) was 35 ± 15 nM and the concentration at 7 days (0.65 mg total paclitaxel) was 35 ± 15 nM.
